This is a selection; strong and weak results do not stand in their true shares. Activity calls are given as the source filed them.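 Rule for the calls: active = viability at or below 30% in both replicate assays; inconclusive = viability at or below 30% in just one of the two assays; inactive = the rest.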
Assay: HUVEC growth inhibition – cell-based, human, primary screen (AID 575);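 note: 100% = median of untreated cell wells with 0.1% DMSO on each plate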
Conditions: HUVEC proliferation, CellTiter-Glo luminescence, 72 h; at 10 µM; stronger effect = lower value
Procedure, shortened: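 Test system – primary HUVEC, no more than 12 passages · Dosing – one dose, 10 µM final, 0.1% DMSO · Times – 72 h treatment at 37 °C · Measured by – ATP-based CellTiter-Glo luminescent read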

Compound | viability
CN(C)CCOC(=O)C(O)(c1ccccc1)C1CCCCC1 (stereo not given) | inactive: 112%
CP(=O)(Nc1ccc2c(c1)OCCO2)Oc1ccccc1 (stereo not given) | inactive: 87.3%
CP(=O)(Nc1ccccn1)Oc1ccccc1 (stereo not given) | inactive: 97%
CP(=S)(Nn1cnnc1)Oc1ccccc1 (stereo not given) | inactive: 110%
Cc1ccc(C)c(NP(C)(=O)Oc2ccccc2)c1 (stereo not given) | inactive: 106%
